Assay in all cases: β-Lactamase catalysed hydrolysis of prodrug, rate of hydrolysis (UV absorbance)
Test [1] concerns the target β-lactamase (Enterobactor cloacae p99) (Enterobacter cloacae, UniProt P05364). It is filed as biochemical. As to conditions: E.cloacae β-lactamase 0.1-10 µg/ml, 0.1mg/ml prodrug in buffer, decrease in absorbance at 265nm.
Test [2] has as its target T1, β-lactamase (Bacillus cereus II) (Bacillus cereus, UniProt P04190).
T1 sequence (P04190 31-257): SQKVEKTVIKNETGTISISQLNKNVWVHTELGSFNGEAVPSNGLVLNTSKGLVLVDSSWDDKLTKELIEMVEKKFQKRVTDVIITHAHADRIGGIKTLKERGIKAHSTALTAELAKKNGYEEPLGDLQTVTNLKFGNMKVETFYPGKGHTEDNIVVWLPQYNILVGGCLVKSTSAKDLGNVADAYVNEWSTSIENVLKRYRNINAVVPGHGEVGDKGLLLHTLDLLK
It is filed as biochemical. As to conditions: B.cereus II β-lactamase 0.1-10 µg/ml, 0.1mg/ml prodrug in buffer, decrease in absorbance at 265nm.

By UniProt entry, the sequences of proteins in these tests, tags left out. Residues count along the entry.
UniProt P05364, 21-381: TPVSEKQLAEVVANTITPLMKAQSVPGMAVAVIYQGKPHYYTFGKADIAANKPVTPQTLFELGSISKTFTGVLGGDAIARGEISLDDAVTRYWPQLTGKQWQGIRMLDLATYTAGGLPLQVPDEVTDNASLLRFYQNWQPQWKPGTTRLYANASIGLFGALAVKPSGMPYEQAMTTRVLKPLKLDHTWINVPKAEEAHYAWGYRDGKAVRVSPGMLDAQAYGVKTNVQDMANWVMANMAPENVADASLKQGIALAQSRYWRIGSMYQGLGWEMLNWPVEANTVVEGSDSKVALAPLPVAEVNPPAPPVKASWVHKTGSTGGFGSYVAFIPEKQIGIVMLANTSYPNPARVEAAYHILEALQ
UniProt P62593, 24-286 limits assumed: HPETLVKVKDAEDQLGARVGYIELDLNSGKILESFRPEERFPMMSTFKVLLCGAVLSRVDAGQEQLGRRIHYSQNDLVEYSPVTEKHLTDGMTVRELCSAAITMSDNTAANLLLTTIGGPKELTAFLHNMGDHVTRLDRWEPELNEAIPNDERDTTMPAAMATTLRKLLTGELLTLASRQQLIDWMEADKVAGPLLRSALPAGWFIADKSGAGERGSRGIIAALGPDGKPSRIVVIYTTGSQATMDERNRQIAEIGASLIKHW

The target of test [3] is β-lactamase (E.coli RTEM) (Escherichia coli, UniProt P62593). Conditions: E.coli β-lactamase 0.1-10 µg/ml, 0.1mg/ml prodrug in buffer; 265nm (6-mercaptopurine followed at 323nm).

This passage reports Km and kcat results from patent EP0392745B1, “Immunoconjugates and prodrugs and their use in association for drug delivery” (CELLTECH LIMITED, priority 1989, dated 1990).

The term Km denotes the concentration of substrate that gives half-maximal velocity. Take `O=C(Cc1cccs1)N[C@@H]1C(=O)N2C(C(=O)O)=C(COC(=O)N(CCCl)CCCl)CS[C@H]12` [Example 2, 3-(Bis-2-chloroethylcarbamoyl)-7β-(2-acetamido)-3-cephem-4-carboxylic acid]: in test [1], the Km is 109 µM and the kcat is given as 515 5⁻¹.
For the compound `O=C(Cc1cccs1)N[C@@H]1C(=O)N2C(C(=O)O)=C(COC(=O)N(CCBr)CCBr)CS[C@H]12` [Example 3, 3-(Bis-2-bromoethylcarbamoyl)-7β-(2-acetamido)-3-cephem-4-carboxylic acid], the Km in test [2] came to 63 µM; in test [1], 73 µM. Besides, the kcat is given as 3.5 5⁻¹ in test [2] and 151 5⁻¹ in test [1].
`CC(Cl)CN(CC(C)Cl)C(=O)OCC1=C(C(=O)O)N2C(=O)[C@@H](NC(=O)Cc3cccs3)[C@H]2SC1` (stereo partly drawn) [Example 4, 3-(Bis-2-chloropropylcarbamoyl)-7β-(2-acetamido)-3-cephem-4-carboxylic acid]: in test [2], the Km came out at 54 µM and the kcat is recorded as 3.4 5⁻¹. Moreover, in test [3], the Km was determined as 70 µM and the kcat was 10.5 5⁻¹.
As to `CC(Br)CN(CC(C)Br)C(=O)OCC1=C(C(=O)O)N2C(=O)[C@@H](NC(=O)Cc3cccs3)[C@H]2SC1` (stereo partly drawn) [Example 5, 3-(Bis-2-bromopropylcarbamoyl)-7β-(2-acetamido)-3-cephem-4-carboxylic acid], in test [1], the Km turned out to be 40 µM and the kcat is 120 5⁻¹.
For `O=C(Cc1cccs1)N[C@@H]1C(=O)N2C(C(=O)O)=C(CSc3ncnc4[nH]cnc34)CS[C@H]12` [Example 7, 3-(Purin-6-ylthiomethyl)-7β-(2-acetamido)-3-cephem-4 carboxylic acid], the kcat in test [3] was 8.1 5⁻¹.
